Laboratory results: US20030152646A1, “Method of treating conditions caused by activated microglia” (priority 2001, published 2003)

How the values were obtained:
[1] = test system: microglia-neuron co-cultures; conditions: 5 μM Aβ1-42 + 10 ng/ml interferon γ, 48 hour; FeTMPyP 2 μM, MnTMPyP 5 μM
[2] = test system: Saccharomyces cerevisiae cells lacking cytosolic superoxide dismutase (sod1Δ); assay: Yeast sod mutants growth assay; conditions: 25 μM, YPE (ethanol) medium, absence or presence of paraquat (10 μM), 48 hours
[3] = test system: microglia-neuron co-cultures; assay: Neuron survival in co-cultures treated with the NO donor SNP; conditions: SNP 300 μM plus FeTMPyP 2 μM, 48 hr
[4] = test system: nitric oxide (NO) production; assay: Nitrite measurement (Griess reaction) in LPS-treated microglia-neuron co-cultures; format: cell-based, rat; conditions: 100 ng/ml LPS, 48 hours; same concentrations as for neuron survival
[5] = test system: microglia-neuron co-cultures; conditions: 100 ng/ml LPS, 48 hours; L-NMMA 1 mM, PEN 500 μM, THA 200 μM, FeTMPyP 2 μM, FeTPPS 2 μM, MnTMPyP 5 μM, 50 U/ml SOD + 100 U/ml catalase

Row | Substance | effect on Aβ-induced microglial neurotoxicity [1] | effect on growth defects of sod1Δ mutants [2] | effect on SNP-induced neuron death [3] | effect on nitrite accumulation / NO production [4] | effect on LPS-induced neuron death / microglial neurotoxicity [5]
1 | 5,10,15,20-Tetrakis(N methyl-4′-pyridyl)porphinato iron (III) chloride | blocked | did not reverse the growth defects | could not be blocked |  | 
2 | Mn(III)tetrakis(1-methyl-4-pyridyl)porphyrin pentachloride |  | reversed the growth defects |  | without compromising nitric oxide production | attenuated
